# Experimental data: US12135326B2 (priority 2019, dated 2024)
# Target: ClyA-RR nanopore (Salmonella typhi, UniProt Q8Z727, C285S/C87A/D64R/E103G/F166Y/I203V/K294R/L99Q/S110R)
# Assay: DOP recording of DNA translocation through ClyA-RR nanopore
# Conditions: 2.25 M KCl cis, 1.5 M CaCl2 trans
sequence,measurement,setting,value
TTGGCATGTCAGAATGTTAGAATGTTAGAATGTTAGAATGTTAGAATGTTAGAATGTTTCAGATCTCACTATCAAAAA,"mean value of % F (blockade level % Fb, center value±FWHM)",2 μM in droplet,0.583±0.014
same,fluorescence emission characteristics with ClyA-RR (in words),electrode-free DOP,different percentage blockade depths and long event dwell time
